# Values of other authors, collected in article PMC4416786, “Validation of a P-Glycoprotein (P-gp) Humanized Mouse Model by Integrating Selective Absolute Quantification of Human MDR1, Mouse Mdr1a and Mdr1b Protein Expressions with In Vivo Functional Analysis for Blood-Brain Barrier Transport” (PLoS ONE, 2015).
# System: P-gp
# Design: method as in PMID 19047468
# Details: PET imaging; cited from earlier work
smiles,measurement,value
[11CH3]Oc1ccc(-n2nnnc2C(F)(F)F)cc1CN[C@H]1CCCN[C@H]1c1ccccc1 [[11C]GR205171],Brain penetration in humans relative to rodents,8.6 times
